Values of other authors, collected in article PMC4479448, “Delivery of Topically Applied Calpain Inhibitory Peptide to the Posterior Segment of the Rat Eye” (PLoS ONE, 2015).

Details: topically applied; cited from earlier work

For insulin, the “time of peak level in the optic nerve after instillation” value is given as 20 min and the “time of peak level in the retina after instillation” value is given as 1 h.
